Data taken from ChEMBL document CHEMBL5726014, “N-aralkylcarbonyl-piperazine and -homopiperazine compounds and personal care compositions comprising the same” (2018).

The chains behind the UniProt entries cited, without tags or fusion partners.
UniProt P20309, whole entry, looked up: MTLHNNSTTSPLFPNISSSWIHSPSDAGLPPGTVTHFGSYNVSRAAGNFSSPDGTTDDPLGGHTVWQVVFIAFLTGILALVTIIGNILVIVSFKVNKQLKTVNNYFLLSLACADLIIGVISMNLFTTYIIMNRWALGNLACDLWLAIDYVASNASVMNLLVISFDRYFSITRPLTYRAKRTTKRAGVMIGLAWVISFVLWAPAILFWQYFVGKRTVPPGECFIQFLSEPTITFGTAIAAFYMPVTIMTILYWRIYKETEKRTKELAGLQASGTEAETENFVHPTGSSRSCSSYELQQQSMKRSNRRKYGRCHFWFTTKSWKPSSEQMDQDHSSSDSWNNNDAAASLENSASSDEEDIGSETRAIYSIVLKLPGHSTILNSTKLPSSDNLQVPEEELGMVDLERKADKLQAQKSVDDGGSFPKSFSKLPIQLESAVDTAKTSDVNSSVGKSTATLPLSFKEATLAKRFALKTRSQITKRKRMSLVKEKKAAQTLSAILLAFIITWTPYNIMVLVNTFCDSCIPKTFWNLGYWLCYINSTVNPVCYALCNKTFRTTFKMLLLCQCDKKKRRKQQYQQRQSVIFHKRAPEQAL

Target: Muscarinic acetylcholine receptor M3 (Homo sapiens, UniProt P20309)

Row | Compound | IC50
1 | COc1ccc(C(=O)CN2CCN(C(=O)C(O)(c3ccccc3)C3CCCC3)CC2)cc1 (centres undefined) | 3900 nM
2 | O=C(N1CCN(CCCCc2ccccc2)CC1)C(O)(c1ccccc1)C1CCCC1 (centres undefined) | 609 nM
3 | COc1ccc(CC(C)N2CCN(C(=O)C(O)(c3ccccc3)C3CCCC3)CC2)cc1 (centres undefined) | 3000 nM
4 | CC(CCc1ccccc1)N1CCN(C(=O)C(O)(c2ccccc2)C2CCCC2)CC1 (centres undefined) | 144 nM
5 | O=C(CCN1CCN(C(=O)C(O)(c2ccccc2)C2CCCC2)CC1)c1ccccc1 (centres undefined) | 346 nM
6 | COc1ccc(CCN2CCN(C(=O)C(O)(c3ccccc3)C3CCCC3)CC2)cc1OC (centres undefined) | 5700 nM
7 | CN1CCCN(C(=O)C(O)(c2ccccc2)C2CCCC2)CC1 (centres undefined) | 9.5 nM
8 | CN1CCN(C(=O)C(O)(c2ccccc2)C2CCCC2)CC1 (centres undefined) | 1400 nM
9 | O=C(N1CCCN(CCCc2ccccc2)CC1)C(O)(c1ccccc1)C1CCCC1 (centres undefined) | 266 nM
